Reference: paper PMC4009755, “High-Throughput Screen of Natural Product Libraries for Hsp90 Inhibitors” (Biology, 2014)

tested on: Hsp90 chaperone machinery present in rabbit reticulocyte lysate; test: Hsp90-dependent refolding of thermally denatured luciferase in rabbit reticulocyte lysate (high-throughput screen and titration); format: biochemical; conditions: read-out: IC50 (µM), inhibition of luciferase refolding; estimate; titration from 25 µg/mL in three-fold dilutions, repeated twice; rabbit reticulocyte lysate
Experimental: Rabbit reticulocyte lysate, prepared by lysing one volume of packed reticulocytes in two volumes of deionized water, followed by centrifugation for twenty minutes at 15,000 × g, was purchased from Green Hectares (Oregon, WI, USA).
Recombinant luciferase from Promega was diluted to 0.5 mg/mL in buffer consisting of 25 mM Tricine–HCl (pH 7.8), 8 mM MgSO4, 0.1 mM EDTA, and 10 mg/mL acetylated BSA. Next, the solution was adjusted to include 10% glycerol and 1% Triton X-100. Finally, the luciferase solution was heated to ~41°. Once the activity of the luciferase reached ~1% of its initial value, the mixture was placed on ice, or flash frozen in liquid nitrogen and placed at −80° for storage.
To prepare the denatured luciferase for use in re-folding assays, 125 µL of the 0.5 mg/mL mixture was added into a 10 mL mixture containing 80 mM Tris HCl, pH 7.7, 8 mM Mg(OAc)2, 300 mM KCl, 12 mM ATP, and 20 mM creatine phosphate, and 0.8 mg/mL creatine phosphokinase.
The assay buffer, which contains the luciferase substrate luciferin, consisted of 75 mM Tricine-HCl, pH 7.8, 24 mM MgSO4, 300 µM EDTA, 2 mM DTT, 313 µM D-luciferin, 640 µM coenzyme A, 660 µM ATP, 150 mM KCl, 10% (v/v) Triton X-100, 20% (v/v) glycerol, and 3.5% DMSO.
The libraries were screened for compounds that inhibited the refolding of thermally denatured luciferase using a high-throughput assay carried out with a slight modification of the method previously described. Briefly, compounds were reconstituted in 100% DMSO. Stocks of compounds purchased from Microsource, TimTec, Biofocus and BioMol were reconstituted to a concentration of 1 mg/mL. The stocks were diluted 40-fold into nano-pure water with the compounds being used at a final concentration of 12.5 µg/mL for the assay. Analyticon compounds (0.2 µmol) were reconstituted to a concentration of 4 mM, and were used at a final concentration of 40 µM in the assay. Assays were performed in 96-well microplates. To each well was added 30 µL of the water/DMSO compound solution, 15 µL of the reticulocyte lysate preparation, and 15 µL of the luciferase reagent. The plates were agitated and then allowed to incubate at 25 °C for one to three hours. After the incubation, 60 µL of assay buffer containing luciferin was added to each well. The plates were then read in a Molecular Devices LMaxII^384 microplate reader, and luminescence was measured in relative light units, with an integration time of 10 s. Compounds that inhibited luciferase refolding by approximately fifty percent or greater were then titrated into a refolding reaction containing native luciferase, to eliminate false positive hits that were direct inhibitors of luciferase as previously described. Compounds were classified as a potential Hsp90 inhibitor if they inhibited luciferase refolding by 60% or greater and there was no inhibition of the activity of native luciferase at the compound’s IC50 (concentration of the compound that inhibits luciferase refolding by 50%).
To obtain an estimate of a compound’s IC50, the compounds were titrated into the assay mixture described above starting at a concentration of 25 µg/mL and a series of three-fold dilutions. The titrations were repeated twice. For a more accurate determination of the IC50s for the compounds studied in Section 3.2.1 of this manuscript, a two-fold […] series of the compounds were used in triplicate, with the experiment being repeated three times.

C[n+]1cc2c3c(ccc2c2ccc4cc5c(cc4c21)OCO5)OCO3 and CC(C)=CC[C@@H](O)C1=CC(=O)c2c(O)ccc(O)c2C1=O are within 1.5-fold of each other in IC50: 70 µM for the first, 75 µM for the second.

Compared with CC1=C(O)C(=O)C=C2C1=CC=C1[C@@]2(C)CC[C@@]2(C)[C@@H]3C[C@](C)(C(=O)O)CC[C@]3(C)CC[C@]12C, COc1cc2c(C(=O)c3ccccc3)c3c4c(cc(OC)c(OC)c4c2cc1OC)CCN3C is higher in IC50: 2 µM for the first, 7 to 20 µM for the second. The first is the more potent here.

Compared with Cc1cccc2c3c(ccc12)C1=C(C(=O)C3=O)[C@@H](C)CO1, CC(=O)OC1C=CC=C2CC34SSC(CO)(C(=O)N3C21)N(C)C4=O (stereo not shown) is 5.3-fold lower in IC50: 80 µM for the first, 15 µM for the second.

First: Cc1cc2c(C(C)C)c(O)c(O)c(C=O)c2c(O)c1-c1c(C)cc2c(C(C)C)c(O)c(O)c(C=O)c2c1O
Second: COc1cc2c(C=O)c3c4c(cc(OC)c(OC)c4c2cc1OC)CCN3C
The IC50 of the first is higher: 50 µM for the first, 1 to 3 µM for the second. The second is the more potent here.

First: CC(C)=CCCC1(C)C=Cc2c(O)c3c(c(CC=C(C)C)c2O1)OC12C(CC4CC1C(C)(C)OC2(C/C=C(/C)C(=O)O)C4C)C3=O (stereo not shown)
Second: COC1C=COC2(C)Oc3c(C)c(O)c4c(O)c(c(C=O)c(O)c4c3C2=O)NC(=O)C(C)=CC=CC(C)C(O)C(C)C(O)C(C)C(OC(C)=O)C1C (stereo not shown)
The IC50 of the first is lower: 10 µM for the first, 15 to 35 µM for the second. The first is the more potent here.

First: CCCC[C@@H](C)/C=C(C)/C=C(\C)C(=O)NC1=C[C@@](O)(/C=C/C=C/C=C/C(=O)NC2=C(O)CCC2=O)[C@@H]2O[C@@H]2C1=O
Second: COC1=C(N)C(=O)c2nc(-c3nc(C(=O)O)c(C)c(-c4ccc(OC)c(OC)c4O)c3N)ccc2C1=O
The IC50 of the first is higher: 30 to 50 µM for the first, 15 µM for the second. The second is the more potent here.

Compared with CCC1CCCCCCCCc2cc1c(/C=C1/N=C(c3ccc[nH]3)C=C1OC)[nH]2 (stereo not shown), CC1=C(C2=C(C)C(=O)c3c(c(C=O)c(O)c(O)c3C(C)C)C2=O)C(=O)C2=C(C1=O)C(C(C)C)C(O)C(O)C2C=O (stereo not shown) is 1.7-fold lower in IC50: 10 µM for the first, 6 µM for the second.

First: CO[C@H]1c2cc(C(C)C)c(O)c(O)c2[C@@]23CCCC(C)(C)C2[C@@H]1OC3=O (stereo partly shown)
Second: CC1=C(CC/C(C)=C/CC/C(C)=C/CCC2=CC(=O)OC2O)C(C)(C)CCC1 (stereo not shown)
The IC50 of the first is higher: 30 µM for the first, 10 to 20 µM for the second.

First: COc1cc2cc3c4c(cc(OC)c(OC)c4c2cc1OC)CCN3C
Second: Phloretin
The IC50 of the first is lower: 0.9 µM for the first, 35 to 90 µM for the second.

First: COC1=C(OC)C2c3cc(OC)c(OC)cc3C(Cc3c4c5c(cc(OC)c(OC)c5c5cc(OC)c(OC)cc35)CCN4C)=C3C2C(=C1)CCN3C (stereo not shown)
Second: O=C1c2ccccc2-n2c1nc1ccccc1c2=O
The IC50 of the first is lower: 0.1 to 0.4 µM for the first, 15 µM for the second.

Compound CC1OC(OC2CCC(OC3C(O)CC(c4ccc5c(c4O)C(=O)C4=C(C5=O)C5(O)C(=O)CC(C)(OC6CCC(OC7C=CC(=O)C(C)O7)C(C)O6)CC5(O)C=C4)OC3C)OC2C)C=CC1=O (stereo not shown) has an IC50 of 100 µM.

same assay, conditions: read-out: IC50 luciferase refolding; two-hour incubation; vs DMSO control; triplicate, repeated three times

COc1cc(/C=C/C(=O)N2CCC=CC2=O)cc(OC)c1OC [Piplartine] showed an IC50 of 80 µM.
